Values quoted from earlier work in US20130005592A1, “METHODS AND COMPOSITIONS FOR PREDICTING CANCER THERAPY RESPONSE” (Board of Regents of the University of Texas System, priority 2009, published 2013).

Tested on: HER2-overexpressing patients

trastuzumab
patients who respond well (HER2-overexpressing patients): about 35% | patients showing severe side effects including heart problems (patients treated with trastuzumab): roughly 5%
